Molecules are shown by their SMILES. Some of the results follow.

The experiment concerns A. baumannii ATCC 17978. As to the kind of experiment: relative growth (fraction of control); higher = less inhibition. As to conditions: 50 µM.
`N[C@@H](CSSC[C@H](N)C(=O)O)C(=O)O` yielded a relative growth of 0.94.

Compound `Cl.NCc1ccc(S(N)(=O)=O)cc1` had a relative growth of 0.99. `Cc1cccc(/C=C2\CS/C(=C\c3cccc(C)c3)C2=O)c1` showed a relative growth of 1.08. In turn, `O=C(CN1CCOCC1)N[C@@H]1CC[C@H](CCNC(=O)C2CCCCC2)O[C@@H]1CO` showed a relative growth of 1.04.

Compound `CC(=O)SCC(Cc1ccccc1)C(=O)NCC(=O)OCc1ccccc1` (stereo not given) gave a relative growth of 0.886. The figure for `O=c1n(-c2ccc(F)cc2)nc2n1CCCN2` is 1. `COc1cc(C[C@H]2CO[C@H](c3ccc(O)c(OC)c3)[C@@H]2CO[C@H]2O[C@@H](CO)[C@@H](O)[C@@H](O)[C@@H]2O)ccc1O` registered a relative growth of 0.992. Then `CC(=O)O[C@H]1CC[C@@]2(C)C(=CCC3C2CC[C@@]2(C)C3CC[C@@H]2C(C)CCCC(C)C)C1` (stereo not given in full), with 0.963.

Compound `C[N+](C)(C)[C@@H]1[C@H]2OC[C@H](O)[C@H]2O[C@@H]1O` returned a relative growth of 1.11. The compound `C[C@@H]1CN([C@H](C)CO)C(=O)c2cc(C#CC3(O)CCCC3)cnc2O[C@@H]1CN(C)S(=O)(=O)c1ccc(F)cc1` displayed a relative growth of 1.01. Turning to `C[C@@H](Sc1nc(N)cc(N)n1)C(=O)O`, the relative growth was 0.85.

`O=C(OC[C@]12O[C@H]1[C@@H](O)[C@@H]1C=CO[C@@H](O[C@@H]3O[C@H](CO)[C@@H](O)[C@H](O)[C@H]3O)[C@@H]12)c1ccccc1` showed a relative growth of 1.2. For `C=CC[C@H](CC(=O)N[C@@H](CO)Cc1ccccc1)C(=O)N[C@H](COC(=O)[C@@H](CC=C)Cc1ccc(F)cc1)Cc1c[nH]c2ccccc12`, the relative growth worked out at 0.948.

In turn, `Nc1ncnc2c1ncn2[C@H]1O[C@H](COP(=O)(O)O)[C@@H](O)[C@H]1O` came in with a relative growth of 1.

As for `O=C(NC1CC1)[C@@H]1c2ccccc2C(=O)N(Cc2cc(F)cc(C(F)(F)F)c2)[C@H]1c1ccc(CO)cc1`, the relative growth is 0.849.

Take `N[C@H]1CCCC[C@@H]1N1C(=O)CSC1=O`: the relative growth turned out to be 0.998. On to `COc1ccc(CNC(=O)C[C@H]2C[C@@H]3c4cc(NS(=O)(=O)c5ccc(F)cc5)ccc4O[C@@H]3[C@@H](CO)O2)cc1`, for which the relative growth is 0.982. Then `CNC(=O)Nc1ccc(C(=O)NC)cc1`, with 0.911; and `CCOc1nc2c(ncn2C)c(=O)n1C`, with 1.13; and `CC(C)(C)OC(=O)C[C@@H]1CC=CC[C@@H](CC(=O)N[C@@H](CO)Cc2ccccc2)C(=O)N[C@@H](C(C)(C)C)COC1=O`, with 0.902. For `CO/N=C(/C(=O)N[C@@H]1C(=O)N2C(C(=O)O)=C(CSC(=O)c3ccco3)CS[C@H]12)c1csc(N)n1.Cl`, the relative growth was determined as 0.147.

`COc1cc2c(cc1OC)CN(C(=O)[C@@H]1[C@H]3C(=O)O[C@H](c4ccccc4)[C@H](c4ccccc4)N3[C@H](c3ccc(OCCO)cc3)[C@@]13C(=O)Nc1ccc(C#CC4(O)CCCCCC4)cc13)CC2` showed a relative growth of 1.18. The compound `CC(=O)OCC(=O)[C@H]1CCC2C3CCC4=CC(=O)CC[C@]4(C)C3CC[C@@]21C` (stereo not given in full) had a relative growth of 1.3. In turn, `CN1CCN(C(=O)C[C@H]2CC[C@@H]3[C@H](COC[C@H](O)CN3S(=O)(=O)c3cccc(F)c3)O2)CC1` yielded a relative growth of 1.05. In the case of `CC1=CC2C(CC1=O)C2(C)C` (stereo not given), the relative growth came to 0.994. In turn, `COc1ccc(C(=O)c2ccccc2O)c(O)c1` gave a relative growth of 0.825.

`C[C@@H]1CN([C@@H](C)CO)C(=O)c2cccc(NC(=O)Nc3cccc4ccccc34)c2O[C@H]1CN(C)S(=O)(=O)c1ccc(OC(F)(F)F)cc1` displayed a relative growth of 0.937. As to `Cn1cnc(S(=O)(=O)N2C[C@H](O)COC[C@H]3O[C@H](CC(=O)N4CCN(c5ccccc5)CC4)CC[C@@H]32)c1`, the relative growth turned out to be 0.91. On to `CN1CCN(C(=O)C[C@H]2C=C[C@H](NC(=O)c3ccc4c(c3)OCO4)[C@H](CO)O2)CC1`, for which the relative growth was 1.02. The figure for `COC(=O)C[C@H]1CC[C@H]2[C@@H](COC[C@@H](O)CN2S(=O)(=O)c2cn(C)cn2)O1` is 1.09. Regarding `C=CCOC(=O)[C@H]1[C@@H]2C(=O)O[C@@H](c3ccccc3)[C@@H](c3ccccc3)N2[C@@H](c2ccc(OCCOC(=O)[C@@H]3C[C@@H]4C(=O)N[C@@H](Cc5ccccc5)C(=O)N4[C@@H]3c3ccc(O)cc3)cc2)[C@]12C(=O)Nc1ccccc12`, the relative growth was 1.32. In turn, `CC(=O)O[C@@H]1[C@@H](OC(C)=O)[C@H](C)O[C@@H](O[C@H]2[C@H](OC/C=C(\C)CC/C=C(\C)CC/C=C(\C)CCC=C(C)C)O[C@H](CO[C@@H]3O[C@@H](C)[C@H](O)[C@@H](O)[C@H]3O)[C@@H](O)[C@@H]2O)[C@@H]1OC(C)=O` yielded a relative growth of 0.668. Compound `C[C@@H]1CN([C@H](C)CO)S(=O)(=O)c2ccc(C#CCN(C)C)cc2O[C@@H]1CN(C)S(C)(=O)=O` displayed a relative growth of 0.945. In the case of `COc1ccc(COC(=O)[C@H]2[C@H]3C(=O)N(Cc4ccc5c(c4)OCO5)C[C@]34C=C[C@]2(Br)O4)cc1`, the relative growth was 0.804. `C[C@H](CO)N1C[C@H](C)[C@H](CN(C)C(=O)NC2CCCCC2)Oc2cc(-c3cccnc3)ccc2S1(=O)=O` had a relative growth of 0.962. The compound `O=C(C[C@@H]1CC[C@H]2[C@@H](COC[C@H](O)CN2C(=O)C2CC2)O1)NCc1ccncc1` returned a relative growth of 0.855. As to `NNC(=O)c1ccc(CN2CCCCC2)o1`, the relative growth stood at 1.02.

Compound `CN(C)CCNC(=O)c1ccccn1` had a relative growth of 0.974. For the compound `OCc1ccccn1`, the relative growth was 1. Consider `COCC(=O)Nc1ccc2c(c1)C(=O)N(C)[C@@H]1CC[C@H](CC(=O)N3CCc4ccccc4C3)O[C@H]1CO2`, for which the relative growth is 0.893. For the compound `O=C(Nc1ccno1)NN1CCOCC1`, the relative growth came to 0.93. The compound `O=C(Cn1c(=O)n(-c2ccccc2)c(=O)n1CC(=O)N1CCOCC1)N1CCOCC1` came in with a relative growth of 1.01. On to `CN1CCC[C@H]1CO`, for which the relative growth came to 0.87. As for `O=C(C[C@H]1C[C@@H]2c3cc(NC(=O)C4CCOCC4)ccc3O[C@@H]2[C@H](CO)O1)NCc1cc(F)ccc1F`, the relative growth is 0.961. For the compound `C=CCOC(=O)[C@H]1[C@@H]2C(=O)O[C@@H](c3ccccc3)[C@@H](c3ccccc3)N2[C@@H](c2ccc(OCCOC(=O)[C@H]3C[C@H]4C(=O)N[C@@H](Cc5ccccc5)C(=O)N4[C@H]3c3ccc(O)cc3)cc2)[C@]12C(=O)Nc1ccc(I)cc12`, the relative growth stood at 1.38. Compound `O=C(C[C@H]1CC[C@@H]2[C@H](COC[C@@H](O)CN2C(=O)Nc2cccc(Cl)c2)O1)NCc1ccccc1F` displayed a relative growth of 0.791. As for `O=C(C[C@H]1C[C@H]2c3cc(NC(=O)C4CCOCC4)ccc3O[C@H]2[C@@H](CO)O1)NCc1cc(F)ccc1F`, the relative growth turned out to be 0.904.

Compound `NCCc1cc2nc(-c3ccncc3)ccn2n1` displayed a relative growth of 0.994. `C[C@H]1CCc2c(sc(/N=C/C=C/c3ccccc3)c2C#N)C1`: the relative growth worked out at 1.23. `CC(C)Cc1ccc(C(C)C(=O)O)cc1` (stereo not given) displayed a relative growth of 0.984.

Take `CCSC(=O)NC1CCCCC1`: the relative growth is 1.01. `O=c1c(O)c(-c2ccc(O)c(O)c2)oc2cc(O)cc(O)c12` gave a relative growth of 1.02.

Compound `CCS(=O)(=O)NCC[C@@H]1CC[C@@H](NC(=O)Cc2ccccn2)[C@@H](CO)O1` gave a relative growth of 0.882.

In turn, `C[C@@H]1CN([C@H](C)CO)S(=O)(=O)c2ccc(C#Cc3ccncc3)cc2O[C@@H]1CN(C)C(=O)c1ccncc1` displayed a relative growth of 1.09. On to `Cc1cc2cc(CN)ccc2[nH]1`, for which the relative growth was 0.946. As for `Cc1cnc(C(=O)O)c[n+]1[O-]`, the relative growth was 0.938. As for `CC(=O)Nc1cccc(O)c1`, the relative growth is 0.868. Consider `COc1cccc(-c2cn(CC[C@H]3CC[C@@H](NC(=O)CN(C)C)[C@@H](CO)O3)nn2)c1`, for which the relative growth was 0.847. `C[C@@H]1CN([C@@H](C)CO)S(=O)(=O)c2ccc(C#C[C@@H](C)O)cc2O[C@@H]1CN(C)C` gave a relative growth of 1.07. As for `OC[C@@H](O)[C@@H](O[C@@H]1O[C@H](CO)[C@H](O)[C@H](O)[C@H]1O)[C@H](O)[C@@H](O)CO`, the relative growth amounted to 0.938. Compound `CNC[C@@H](O)Cn1cc(C)c(C(C)=O)c1C` displayed a relative growth of 1.02. The figure for `NC(=O)c1nnn(Cc2ccccc2)c1N` is 0.963; for `CO[C@@H]1CN(C)C(=O)c2ccc(NS(C)(=O)=O)cc2OC[C@H](C)N(C(=O)C2CCOCC2)C[C@@H]1C` it is 1.03. With `CC(C)NC(=O)NCC[C@H]1CC[C@H](NC(=O)CN(C)C)[C@@H](CO)O1`, the relative growth turned out to be 0.919. Then `O=C1O[C@H](c2ccccc2)[C@H](c2ccccc2)N2[C@H]1[C@@H](C(=O)O)[C@]1(C(=O)Nc3ccc(C#CC4=CCCCC4)cc31)[C@H]2c1ccccc1OCCO`, with 1.29. The compound `Cc1ccc(S[C@]2(C(=O)O)CC(=O)N(C3Cc4ccccc4C3)[C@@H]2c2ccc(CO)cc2I)cc1` returned a relative growth of 0.872. The compound `C[C@@H]1CN([C@H](C)CO)S(=O)(=O)c2ccc(/C=C/c3ccccc3)cc2O[C@@H]1CN(C)C(=O)CN1CCOCC1` returned a relative growth of 1.01. Regarding `Cl.Cl.OCCOCCN1CCN(C(c2ccccc2)c2ccc(Cl)cc2)CC1` (stereo not given), the relative growth was determined as 1.35. `O=C(C[C@H]1CC[C@@H](NC(=O)CN2CCOCC2)[C@@H](CO)O1)NCCc1ccncc1` returned a relative growth of 1.04.

Regarding `CC1=C(C/C=C(\C)CCC[C@H](C)CCC[C@H](C)CCCC(C)C)C(=O)c2ccccc2C1=O`, the relative growth was determined as 1.21. Regarding `Cc1cccc(S(=O)(=O)N2C[C@@H](O)COC[C@@H]3O[C@H](CC(=O)NCc4ccncn4)CC[C@H]32)c1`, the relative growth was found to be 1.03. With `CO[C@@H]1CN(C)C(=O)c2cc(NC(=O)C3CC3)ccc2OC[C@H](C)N(C(=O)CN2CCOCC2)C[C@@H]1C`, the relative growth was 1.26. For the compound `Cc1ccc(S(=O)(=O)N(C)C[C@@H]2Oc3ncc(-c4ccncc4)cc3C(=O)N([C@@H](C)CO)C[C@@H]2C)cc1`, the relative growth is 1.15. In turn, `O=C(O)[C@H]1/C(=C/CO)O[C@@H]2CC(=O)N21` returned a relative growth of 0.649. As for `CN1C(=O)c2cc(NC(=O)c3cscn3)ccc2OC[C@H]2O[C@H](CC(=O)N3CCOCC3)CC[C@@H]21`, the relative growth worked out at 0.956.

Turning to `C[C@H](CO)N1C[C@H](C)[C@@H](CN(C)C(=O)c2ccccn2)Oc2cc(C#Cc3ccccc3)ccc2S1(=O)=O`, the relative growth was found to be 0.908. Then `c1ccc2c([C@@H]3CCCN3)cccc2c1`, with 0.944; and `O=C1[N-]C(=O)C(c2ccccc2)(c2ccccc2)N1.[Na+]`, with 1.02; and `CC(C)NC(=O)NCC[C@@H]1CC[C@H](NC(=O)CN(C)C)[C@@H](CO)O1`, with 1.1.

As for `COc1ccc(S(=O)(=O)N(C)C[C@@H]2OCc3cnnn3CCCC(=O)N([C@H](C)CO)C[C@H]2C)cc1`, the relative growth is 1.15.
